The values that follow are results of earlier work, collected in patent US20210093730A1, “BIOMARKERS FOR ANTIBODY-DRUG CONJUGATE MONOTHERAPY OR COMBINATION THERAPY” (Immunomedics, Inc., priority 2019, published 2021).

Like-named read-outs stand apart in the source and are kept apart here.

For the series, the system named is metastatic colorectal cancer (mCRC). The following applies: cited from earlier work.
Where [1] appears, read: patients with RAS/BRAF mutations in ctDNA.

Regarding cetuximab: anti-EGFR antibody, under setting [1], the overall survival was 3.1 months and the progression-free survival was 1.8 months. Besides, under “patients without mutations”, the overall survival is on record as 9.4 months and the progression-free survival is on record as 4.9 months.
